This series in a line: Acute toxicity in rat. As to conditions: in vivo, po, male, 7 days. The procedure: (6) Acute toxicity in mouse and rat
Each ten male and female ICR-JCL strain mice and Sprague-Dawley-JCL strain rats were used for each dose.
Each test compound was given to animals in a form of suspension in 0.5% methyl cellose intraperitoneally, subcutaneously and orally. After administration, the incidence of the death was recorded for successive seven days. LD50 values were calculated by the method of Litchfield-Wilcoxon method.

Structures can show the parent of a compound that is named as a salt.

A word on the LD50: it is the dose expected to kill half of the subjects tested. A high value points to a less toxic substance.

As to `O=C(Cn1c(=O)sc2ccc(Cl)cc21)N1CCN(CCO)CC1` [Compound D, 3-[4-(2-hydroxyethyl)-1-piperazinylcarbonylmethyl]-5-chloro-2-benzothiazolinone hydrochloride], the LD50 at 168 h turned out to be 3600 mg/kg.

Source of the values: patent US4131681A, “Antiallergic method” (Fujisawa Pharmaceutical Co., Ltd., priority 1977, dated 1978).
